From US20240293551A1, “USE OF ST-TYPE LIPID COMPOUNDS IN PREPARATION OF NUCLEIC ACID DELIVERY REAGENT AND RELATED PRODUCT” (INSTITUTE OF BASIC MEDICAL SCIENCES CHINESE ACADEMY OF …, priority 2021, published 2024)

Test system: PGY-sRNA-26
Assay: In vivo delivery study of lipid-nucleic acid mixture (oral gavage, RT-qPCR of PGY-sRNA-26 in tissues)
Design: species or system mouse
Conditions: C57BL/6 mice, 100 μg lipid: 10 nmol PGY-sRNA-26, 12 hours; for oral delivery of single-stranded sRNA nucleic acids into mouse intestinal tissue: intestine
Method: 10 nmol of small RNA (as shown in Table 2) was dissolved in 400 μl of DEPC-treated water in a glass tube, 10 μl of the corresponding lipid stock solution was added such that the lipid mass in the system was 100 μg. The mixture was mixed thoroughly, heated in a 90° C. water bath for 15 minutes, and then cooled naturally to obtain the lipid nucleic acid mixture of lipid and small RNA.
C57BL/6 male mice, approximately 6 weeks old, weighing 20-24 g, were obtained from Beijing Vital River Laboratory Animal Technology Co., Ltd. The mice were housed in the SPF-grade animal facility at the Animal Center of the Institute of Basic Medical Sciences, Chinese Academy of Medical Sciences. The mice were fasted for 12 hours before gavage administration.
The resultant lipid nucleic acid mixture was orally administered to each mouse at a dose of 100 μg lipid: 10 nmol single-stranded 3′-methylated small RNA PGY-sRNA-26.
• 1) Blank group (n=4): mice were administered with 500 μl saline by gavage, this group served as a blank control; • 2) Free uptake group (n=4): mice were directly administered with small RNA PGY-sRNA-26 solution (10 nmol/mouse, 500 μl) by gavage, this group served as a negative control; • 3) Lipid-treated group (n=4): mice were administered with 500 μl lipid nucleic acid mixture prepared in step 2 by gavage.
After 12 hours of gavage administration, 500 μl blood from the eyeball of each mouse was sampled, added to 1.5 ml Trizol Reagent LS (purchased from Invitrogen), thoroughly mixed for lysis. 3 ml of Trizol Reagent LSwas added to tissue samples and homogenized for complete lysis, wherein the sampled tissues include heart, liver, spleen, lung, kidney, stomach, intestine, brain, blood, femur. RNA was extracted from 1 ml of the blood or the tissue lysate following the steps below: • Centrifuge at 4° C., 12,000 rpm for 5 min, discard the precipitate, transfer Trizol to a new centrifuge tube; • Add chloroform at 200 μL chloroform/mL Trizol, shake well, stand at room temperature for 5 min; • Centrifuge at 4° C., 12,000 rpm for 15 min; • Take the upper aqueous phase to another centrifuge tube, add isopropanol at 0.4 mL isopropanol/mL Trizol, mix well, and stand at low temperature for 10-20 min; • Centrifuge at 4° C., 12,000 rpm for 15 min, discard the supernatant, RNA precipitated at the bottom of the tube; • Add 1 mL of 75% ethanol, gently shake the centrifuge tube, suspend the precipitate; • Centrifuge at 4° C., 12,000 rpm for 15 min, discard the supernatant, add 1 mL of 75% ethanol, gently shake the centrifuge tube, suspend the precipitate; • Centrifuge at 4° C., 12,000 rpm for 15 min, discard the supernatant, air-dry at room temperature, dissolve RNA samples in 50 μL RNase-free H2O, measure OD value to quantify RNA concentration. 3.3 Reverse Transcription of sRNA to cDNA:
The reverse transcription system is as follows: Template RNA (200 ng/μL) 10 μL, 10×RT Buffer 2.0 μL, 25×dNTP Mix (100 mM) 0.8 μL, U6 RT stem-loop primer (10 μM) 2.0 μL, PGY-sRNA-26 RT stem-loop primer (10 μM) 2.0 μL, MultiScribe™ Reverse Transcriptase (50 U/μL) 1.0 μL, RNAse Inhibitor (40 U/μL) 1.0 μL, nuclease-free H2O 1.2 μL. After transient centrifugation, the reverse transcription system was placed in a PCR machine with the following reaction conditions: (1) 25° C., 10 min; (2) 37° C., 120 min; (3) 85° C., 5 min; (4) 4° C., stop reaction. After the reaction, add 20 μL RNAse-free ddH2O, adjust the final volume to 40 μL. The stem-loop primers used in this reverse transcription process were synthesized by Beijing Tianyi Huiyuan Biotechnology Co., Ltd. (U6 was used as a standard reference gene to calculate its relative expression, because U6 RT primer was used as a reference gene in relative quantification of RT-qPCR reactions for small RNA): […]

C[C@]12CC[C@H]3[C@@H](CCC4=CC(=O)CC[C@@]43C)[C@@H]1CC[C@@H]2O [Lipid 579]
can effectively orally deliver: oral delivery of single-stranded sRNA nucleic acids into mouse heart tissue | oral delivery of single-stranded sRNA nucleic acids into mouse intestinal tissue | oral delivery of single-stranded sRNA nucleic acids into mouse kidney tissue | oral delivery of single-stranded sRNA nucleic acids into mouse liver tissue | oral delivery of single-stranded sRNA nucleic acids into mouse lung tissue | oral delivery of single-stranded sRNA nucleic acids into mouse spleen tissue | oral delivery of single-stranded sRNA nucleic acids into mouse stomach tissue

C[C@]12CC[C@H](O)CC1=CC[C@@H]1[C@@H]2CC[C@]2(C)C(=O)CC[C@@H]12 [Lipid 561]
can effectively orally deliver: oral delivery of single-stranded sRNA nucleic acids into mouse heart tissue | oral delivery of single-stranded sRNA nucleic acids into mouse intestinal tissue | oral delivery of single-stranded sRNA nucleic acids into mouse kidney tissue | oral delivery of single-stranded sRNA nucleic acids into mouse liver tissue | oral delivery of single-stranded sRNA nucleic acids into mouse lung tissue | oral delivery of single-stranded sRNA nucleic acids into mouse spleen tissue | oral delivery of single-stranded sRNA nucleic acids into mouse stomach tissue
